Literature values as cited in publication PMC8415315, “Maternal Serotonin Reuptake Inhibitor Antidepressants Have Acute Effects on Fetal Heart Rate Variability in Late Gestation” (Frontiers in Psychiatry, 2021).

Test system: fetal HR
Settings: fetal exposure; ref [48]; cited from earlier work

buprenorphine
Effect on fetal HR and movement: acute suppressive effect
